The experiment concerns Hippocampus. The experiment can be described thus: Neuroprotective activity in Sprague-Dawley rat hippocampal slice assessed as reversal of DFP-induced damage at 10 uM measured after 2 hrs by electrophysiological assay.

This is an account of results in ChEMBL document CHEMBL2407019.

Activity calls are given as the source filed them. The calls are words filed in the database; no cut-off is given here.

As for `CO[C@@]1(C)/C=C/[C@H](C(C)C)CC/C(C)=C\CC/C(C)=C\[C@H](O)C1`, the result was inactive.
